Results: ChEMBL document CHEMBL5244276, “New Series of Potent Allosteric Inhibitors of Deoxyhypusine Synthase” (ACS Med Chem Lett, 2020)

assay: Metabolic stability in mouse liver microsomes assessed as clearance at 1 uM measured upto 30 mins in the presence of NADPH-generating system by LC-MS analysis; type: ADME, Microsome; conditions: 0.5 h

In order of rising CLH:
1. CCCCCCC(CN)N1CCc2c(-c3cccnc3)csc2C1=O (racemic)  114 µL/min/mg
2. NCC(c1csc2ccccc12)N1CCc2c(-c3cccnc3)csc2C1=O (racemic)  185 µL/min/mg
3. O=C(Nc1cccc2[nH]ccc12)c1cc2ccc(Br)cc2s1  304 µL/min/mg
